Experimental data taken from patent US5830452A, “Method for enhancing the anti-tumor therapeutic index of interleukin-2” (Chiron Corporation, priority 1994, dated 1998).

Legend:
[1] = Plasma clearance of PEG-IL-2 and IL-2 and lethality (FIG. 2); type: in vivo, mice; settings: single i.v. bolus, FIG. 2
Procedure: FIG. 2 is a plot of concentration of PEG IL-2 in I.U./ml plasma in mice versus time (hours) for three different dosages of IL-2 given as a single iv bolus.
Additionally, the drug must be below a certain level by a certain time before the next dose is given. The blood level is preferably below 10 I.U./ml plasma, more preferably below 1 I.U./ml plasma, most preferably it is substantially eliminated. The specific time may vary from patient to patient, however, it is generally between 48 and 96 hours.
The purpose of this experiment was to define the peak height and shape of the IL-2 blood concentration curve. Unmodified IL-2 (IL-2) and PEG modified IL-2 (having apparent molecular weights of 95 kD and 160 kD) were given to the mice in one bolus dose. […] Consequently, one can determine the effect of dose and duration by administering IL-2 and PEG-IL-2 molecules that will remain in the body for varying lengths of time.

[2] = tested on: murine tumor; settings: murine tumor studies; cited from earlier work
[3] = tested on: Meth A tumor; test: Meth A: effect of drug holiday, continuous infusion combined with i.v. bolus, Table 3; type: in vivo, mice; settings: for toxicity without drug holiday: mouse, in vivo
Procedure: An experiment was performed to determine how the drug holiday affected the IL-2 toxicity. IL-2 was continuously administered to mice at either of two dose levels. Bolus IL-2 doses were administered (i.v.) to these mice to elevate their IL-2 blood concentration above the continuous infusion level. This administration schedule creates blood concentration peaks, but without the troughs.
* Seven day i.p. pumps combined with i.v. bolus dosing QD × 7.

[4] = tested on: Meth A tumor; test: Meth A: continuous infusion versus bolus dosing, Table 4; type: in vivo, mice
Procedure: An experiment was performed to compare continuous infusion with bolus dosing. As shown below in Table 4, three IL-2 concentrations were administered via continuous infusion or bolus dosing and the results compared.
to IP bolus dosing in Meth A.

[5] = CI 0.28 mg/kg + IV 5 mg/kg QD×7
[6] = CI 0.28 mg/kg, seven day i.p. pump
[7] = CI 0.57 mg/kg + IV 5 mg/kg QD×7
[8] = CI 0.57 mg/kg, seven day i.p. pump

160 kD PEG IL-2: PEG (7,000 MW) modified IL-2 having an apparent molecular weight of 160 kD
mice dying when IL-2 is not cleared until 96 hours [1]: 5/5
mice dying when PEG-IL-2 is cleared after 82 hours [1]: 0/5
anti-tumor activity versus IL-2 on a dose per dose basis [2]: approximately 24 -fold

IL-2: Unmodified interleukin-2, recombinant or natural human; lymphokine, T cell growth factor
% TGI [3, 5]: 83%
Cures [3, 5]: 1/2
% TGI [3, 6]: 55%
Cures [3, 6]: 0/5
% TGI [3, 7]: 90%
Cures [3, 7]: 1/3
% TGI [3, 8]: 49%
Cures [3, 8]: 0/5
% TGI ([3]; IV 5 mg/kg QD×7): 88%
Cures ([3]; IV 5 mg/kg QD×7): 0/5
toxicity without drug holiday [3]: a drug holiday is necessary to reduce toxicity
toxicity without drug holiday ([3]; listed as IL2): No drug holiday period increases IL2 toxicity
% TGI ([4]; 0.3 mg/kg/D, CI (IP)): 21%
Cures ([4]; 0.3 mg/kg/D, CI (IP)): 0/15
% TGI ([4]; 0.3 mg/kg/D, IP bolus): 38%
Cures ([4]; 0.3 mg/kg/D, IP bolus): 1/15
% TGI ([4]; 0.6 mg/kg/D, CI (IP)): 31%
Cures ([4]; 0.6 mg/kg/D, CI (IP)): 0/12
% TGI ([4]; 0.6 mg/kg/D, IP bolus): 60%
Cures ([4]; 0.6 mg/kg/D, IP bolus): 1/15
% TGI ([4]; 1.2 mg/kg/D, CI (IP)): 81%
Cures ([4]; 1.2 mg/kg/D, CI (IP)): 1/13
% TGI ([4]; 1.2 mg/kg/D, IP bolus): 90%
Cures ([4]; 1.2 mg/kg/D, IP bolus): 4/15
